Protein sequences, listed by entry. Tags and fused reporters are not part of them.
UniProt Q13535, whole entry: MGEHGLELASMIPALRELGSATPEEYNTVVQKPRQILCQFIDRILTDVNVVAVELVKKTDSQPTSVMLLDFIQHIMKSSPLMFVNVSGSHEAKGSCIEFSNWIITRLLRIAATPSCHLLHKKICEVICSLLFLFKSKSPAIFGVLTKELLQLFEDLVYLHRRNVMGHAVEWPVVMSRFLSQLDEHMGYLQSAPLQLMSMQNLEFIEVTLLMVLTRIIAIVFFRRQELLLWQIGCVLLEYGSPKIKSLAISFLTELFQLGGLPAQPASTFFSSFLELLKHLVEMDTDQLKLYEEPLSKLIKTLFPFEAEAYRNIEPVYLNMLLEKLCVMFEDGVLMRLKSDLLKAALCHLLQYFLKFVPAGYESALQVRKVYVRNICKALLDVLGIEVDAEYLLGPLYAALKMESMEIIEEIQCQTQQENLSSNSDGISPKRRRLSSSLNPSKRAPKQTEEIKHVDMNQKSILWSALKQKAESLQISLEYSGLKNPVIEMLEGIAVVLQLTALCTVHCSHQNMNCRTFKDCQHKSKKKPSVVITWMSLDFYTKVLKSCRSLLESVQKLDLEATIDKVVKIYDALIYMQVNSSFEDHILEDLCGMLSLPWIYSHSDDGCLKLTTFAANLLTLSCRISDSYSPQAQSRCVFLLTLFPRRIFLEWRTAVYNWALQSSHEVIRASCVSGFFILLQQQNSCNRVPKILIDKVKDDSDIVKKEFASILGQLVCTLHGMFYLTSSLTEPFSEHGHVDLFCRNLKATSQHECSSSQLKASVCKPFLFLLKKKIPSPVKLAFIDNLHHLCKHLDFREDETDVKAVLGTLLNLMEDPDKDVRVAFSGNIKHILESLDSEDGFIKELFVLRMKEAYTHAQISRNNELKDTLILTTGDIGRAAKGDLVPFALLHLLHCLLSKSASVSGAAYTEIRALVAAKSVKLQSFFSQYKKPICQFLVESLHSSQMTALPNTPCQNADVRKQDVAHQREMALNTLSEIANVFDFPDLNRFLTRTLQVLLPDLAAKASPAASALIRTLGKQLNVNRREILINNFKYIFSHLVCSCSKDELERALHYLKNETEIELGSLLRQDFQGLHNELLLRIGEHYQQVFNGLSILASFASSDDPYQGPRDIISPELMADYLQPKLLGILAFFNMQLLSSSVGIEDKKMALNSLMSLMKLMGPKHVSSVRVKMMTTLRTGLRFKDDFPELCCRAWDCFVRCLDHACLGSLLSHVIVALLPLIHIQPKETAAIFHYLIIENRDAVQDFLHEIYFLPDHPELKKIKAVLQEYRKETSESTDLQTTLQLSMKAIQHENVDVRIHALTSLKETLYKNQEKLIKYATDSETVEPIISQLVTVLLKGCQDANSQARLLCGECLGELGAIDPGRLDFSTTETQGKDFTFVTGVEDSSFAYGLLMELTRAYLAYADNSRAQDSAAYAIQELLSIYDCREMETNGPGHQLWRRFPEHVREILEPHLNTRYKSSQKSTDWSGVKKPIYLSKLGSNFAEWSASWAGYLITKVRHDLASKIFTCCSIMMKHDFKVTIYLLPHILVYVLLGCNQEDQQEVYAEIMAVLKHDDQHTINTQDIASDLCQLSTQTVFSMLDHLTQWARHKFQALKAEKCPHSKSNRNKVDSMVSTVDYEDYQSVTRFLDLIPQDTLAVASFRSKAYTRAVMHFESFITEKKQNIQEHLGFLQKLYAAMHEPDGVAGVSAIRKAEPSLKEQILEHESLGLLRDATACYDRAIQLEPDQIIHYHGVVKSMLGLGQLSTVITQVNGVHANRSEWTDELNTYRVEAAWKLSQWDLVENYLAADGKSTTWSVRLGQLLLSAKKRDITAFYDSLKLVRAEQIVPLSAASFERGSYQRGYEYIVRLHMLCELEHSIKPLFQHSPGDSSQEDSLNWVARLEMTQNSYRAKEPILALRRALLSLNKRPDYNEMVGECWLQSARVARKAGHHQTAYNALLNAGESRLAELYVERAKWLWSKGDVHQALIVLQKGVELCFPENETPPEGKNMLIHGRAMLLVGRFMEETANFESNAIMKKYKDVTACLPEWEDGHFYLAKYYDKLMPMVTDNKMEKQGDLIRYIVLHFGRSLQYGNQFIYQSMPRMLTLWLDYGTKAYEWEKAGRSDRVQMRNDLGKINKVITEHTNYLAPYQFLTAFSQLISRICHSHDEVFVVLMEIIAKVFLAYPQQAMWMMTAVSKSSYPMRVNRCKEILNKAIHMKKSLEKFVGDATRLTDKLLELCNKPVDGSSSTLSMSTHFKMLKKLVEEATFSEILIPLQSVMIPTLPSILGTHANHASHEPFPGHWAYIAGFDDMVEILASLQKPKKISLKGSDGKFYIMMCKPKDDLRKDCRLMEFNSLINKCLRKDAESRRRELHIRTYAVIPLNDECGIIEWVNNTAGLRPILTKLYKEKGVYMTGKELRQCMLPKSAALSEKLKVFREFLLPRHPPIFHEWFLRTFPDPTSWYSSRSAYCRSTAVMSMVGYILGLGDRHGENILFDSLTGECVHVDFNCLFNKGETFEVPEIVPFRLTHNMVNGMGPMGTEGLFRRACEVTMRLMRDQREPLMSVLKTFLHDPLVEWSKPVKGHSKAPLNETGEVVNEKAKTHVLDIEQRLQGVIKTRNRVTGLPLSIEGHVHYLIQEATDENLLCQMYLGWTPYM

According to patent publication US10479784B2:

Biological target: full-length ATR (Homo sapiens (Human), UniProt Q13535)
Experiment: ATR Inhibition Assay (radioactive-phosphate incorporation)
Assay type: biochemical
Conditions: read-out: ATR Ki

Structure (SMILES) | Ki
CC(C)S(=O)(=O)c1ccc(-c2cnc(N)c(-c3nnc(-c4ccc(CNC(CO)(CO)CO)cc4)o3)n2)cc1 | < 10 nM
CC(C)S(=O)(=O)c1ccc(-c2cnc(N)c(-c3cc(-c4ccc(CNCCOCCO)cc4)no3)n2)cc1 | < 10 nM
CCOP(=O)(OCC)N1CCCN(C(=O)c2ccc(-c3cnc(N)c(-c4nnc(-c5ccccc5)o4)n3)cc2F)CC1 | < 10 nM

The next lines start with the values.

Ki | Structure (SMILES)
10 to 100 nM | Nc1ncc(-c2ccc(C(=O)N3CCCNCC3)cc2)nc1-c1nc2ccccc2o1
10 to 100 nM | Nc1ncc(-c2ccc(C(=O)N3CCCNCC3)cc2)nc1-c1nc2ccccc2s1
10 to 100 nM | Nc1ncc(-c2ccccc2CO)nc1-c1nnc(-c2ccccc2)o1
10 to 100 nM | CC(C)(C)OC(=O)N1CCCN(C(=O)c2ccc(-c3cnc(N)c(-c4nc5ccccc5s4)n3)cc2)CC1
